In the library only some 1.2% were active in any assay of this set; here they are far more common.
miR-122 sensor – inhibitors of miR-122 in Huh7 cells | Huh7 miR-122 Renilla luciferase sensor, 48 h; neutral wells = 0, positive control = 100 | activation (reporter increase), % at 12.5 µM | 340,000 compounds, 0.3% hits;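 active means mean replicate activation score at least 90 and every replicate individually at or above 90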;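 further: higher luciferase means less miR-122 activity so hits act as miR-122 inhibitors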
Cneo AK release – Cryptococcus neoformans lysis via adenylate kinase release. C. neoformans lysis, adenylate kinase release luminescence, 4 h; normalised: neutral wells 0, clomiphene wells 100. lysis activity, % at 15 µM. 360,000 compounds, 0.2% hits;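 active means mean lysis activity across replicates of at least 80%, whatever share of replicates individually reach that level; inactive means mean lysis activity below 80%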
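Test system: log-phase Cryptococcus neoformans yeast cells; Quantity: yeast cell density of 5 × 10^6 cells/mL; Buffer or medium: YPD; Doses: single compound concentration per well; Timing: 4 h at 37 °C static, read 1 h later; Measured by: AK luminescence; Read-out basis: lysis from increased AK signal; Control set: Clomiphene as positive control.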
Glyco luc inh – blocks N-linked glycosylation in D54 reporter cells. D54 ERlucT glycosylation luciferase reporter, 24 h; percent of 100 nM tunicamycin response. reporter increase, % at 12.5 µM. 360,000 compounds, 0.23% hits;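 active means mean luciferase reporter signal, scaled so untreated is 0 and the glycosylation-blocking control 100, at or above a set limit in every replicate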;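 further: luciferase carries N-glycosylation sites so blocking glycosylation raises the light; 0% = median of neutral control wells and 100% = median of 100 nM tunicamycin wells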
UUG fidelity – yeast start codon fidelity modulation; AID 602363; activity score, % at 18.7 µM; S. cerevisiae UUG-firefly luciferase reporter, luminescence/redox ratio; 0.13% of 350,000 active;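 active means replicate mean at a twofold rise or more, about +100% in these data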;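 further: firefly luciferase made from a UUG start codon reports start codon fidelity; reporter light over untreated wells divided by growth signal over untreated wells; some hits fall short of that in this replicate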
Statin myotox sup – suppression of simvastatin myotoxicity; 330,000 compounds, 0.78% hits; rescue of ATP level, % at 7.49 µM; C2C12 myotubes + simvastatin, ATP luminescence, 48 h; scaled: DMSO 0, geranylgeraniol control 100;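 active means mean ATP rescue above about 67%, or every replicate alone reaching that limit, limit read from the data, passing the limit was not always enough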;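 further: myotubes were challenged with 10 µM simvastatin during compound exposure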
* marks the source's active call; other numbers are inactive results; x = not tested or not shown; [ ] = dose if it differs, or a comment.

nr	SMILES	miR-122 sensor	Cneo AK release	Glyco luc inh	UUG fidelity	Statin myotox sup
1	CNC[C@@H]1OCCCC[C@@H](C)Oc2ccc(NC(=O)Nc3ccc4c(c3)OCO4)cc2C(=O)N([C@H](C)CO)C[C@@H]1C	3[16.7 µM]	89*	x	-1	0
2	CNC[C@H]1OCCCC[C@H](C)Oc2ccc(NC(=O)Nc3ccc4c(c3)OCO4)cc2C(=O)N([C@H](C)CO)C[C@@H]1C	0[16.7 µM]	x	x	x	36
3	CNC[C@@H]1OCCCC[C@@H](C)Oc2ccc(NC(=O)NC(C)C)cc2C(=O)N([C@@H](C)CO)C[C@H]1C	4[16.7 µM]	88*	x	x	x
4	O=C(N[C@@H]1CC[C@@H](CCNS(=O)(=O)c2ccc(F)cc2)O[C@@H]1CO)c1cnccn1	x	40	x	0	11
5	CSc1cc(-c2ccc(Cl)cc2)c(C(=O)NC(C)C)s1	1	0	-2	-24	130*
6	CCOC(=O)Cc1csc(/N=C/c2c(O)n(-c3ccc(C)c(C)c3)c(=O)c3ccccc23)n1	x	x	71*	x	x
7	CCC(=O)Nc1ccc2c(c1)OC[C@@H](C)N(C(=O)c1cnccn1)C[C@@H](C)[C@@H](OC)CN(C)C2=O	x	-2	x	6	-6
8	CCCN(C)C[C@H]1OCCCC[C@H](C)Oc2ccc(NC(=O)Nc3cccc4ccccc34)cc2C(=O)N([C@@H](C)CO)C[C@H]1C	-3[16.7 µM]	2	x	3	x
9	COCC(=O)N1[C@@H](CO)[C@@H]2c3ccccc3N(C(=O)c3cccnc3)C[C@@H]21	-42[16.7 µM]	-4	x	x	-8
10	CCOc1ncccc1C(=O)Nc1ccc2c(c1)OCO2	x	x	1	x	x
11	CCOc1ncccc1C(=O)Nc1cc2c(cc1Br)OCCO2	16	0	41*	-17	-14
12	COCCCN1C(=O)c2ccc(C(=O)O)cc2C1=O	5	0	2	-2	100*
13	CC(C)(C)C1CCc2c(sc(NC(=O)C3CCCO3)c2C(N)=O)C1 (stereo not drawn)	17	-1	8	2	96*
14	CC1CC(C)CN(C(=O)c2ccc(NC(=O)c3ccc(=O)[nH]c3)cc2)C1 (stereo not drawn)	1	-4	-1	-12	0
15	CC1CC(C)CN(S(=O)(=O)c2ccc(NC(=O)c3ccc(=O)[nH]c3)cc2)C1 (stereo not drawn)	102*	-3	23	-10	-26
16	CC(C)(C)c1ccc(NC(=O)CON=C(N)c2ccccc2)cc1	-1	-3	1	-3	2
17	Cc1ccc(NC(=O)CO/N=C(\N)c2ccccc2)cc1C	3	2	0	1	95*
18	Cc1ccc(C)c(S(=O)(=O)NCC(c2ccc3c(c2)OCO3)N2CCOCC2)c1 (stereo not drawn)	101*	0	-1	4	1
19	Cc1cc(S(=O)(=O)N(Cc2ccccc2F)C2CC2)ccc1-n1cnnn1	143*	0	-1	-29	-2
20	Cc1cc(S(=O)(=O)NCC(c2ccccc2)c2ccccc2)ccc1-n1cnnn1	125*	5	-1	-6	3

Next entries follow:
nr	SMILES	miR-122 sensor	Cneo AK release	Glyco luc inh	UUG fidelity	Statin myotox sup
21	CCCN(C)C[C@@H]1OCc2cn(nn2)CCCC(=O)N([C@@H](C)CO)C[C@@H]1C	1[16.7 µM]	7	x	1	-8
22	CCN(CC)C(=O)CSc1nnc([C@H](CCSC)NC(=O)OC(C)(C)C)o1	-9	-1	1	-10	143*
23	CSCC[C@H](NC(=O)OC(C)(C)C)c1nnc(SCC(N)=O)o1	-7	x	-1	x	10
24	COc1ccccc1C(=O)OCc1c(F)cccc1Cl	3	0	-1	10	-9
25	OCCCN=c1cc(-c2ccccc2)oc2ccc(Cl)cc12	8	x	58*	x	44
26	CC(C)NC(=O)Nc1ccc2c(c1)C(=O)N([C@H](C)CO)C[C@H](C)[C@H](CN(C)Cc1ccncc1)OCCCC[C@H](C)O2	1[16.7 µM]	114*	x	x	x
27	C[C@H](CO)N1C[C@H](C)[C@@H](CN(C)Cc2ccncc2)OCCCC[C@H](C)Oc2ccc(NC(=O)NC3CCCCC3)cc2C1=O	-4[16.7 µM]	111*	x	16	13
28	C[C@@H]1CN([C@H](C)CO)S(=O)(=O)c2ccc(C#CC3CC3)cc2O[C@@H]1CN(C)C(=O)CC1CC1	-18[16.7 µM]	2	x	5	-4
29	Cc1ccc(NC(=O)c2ccc(Cl)cc2[N+](=O)[O-])nc1	x	x	31*	x	x
30	Cc1ccc(NC(=O)c2ccccc2[N+](=O)[O-])nc1	10	-1	5	-27	x
31	COc1ccccc1NC(=O)CN1C(=O)CCS(=O)(=O)c2ccccc21	10	2	0	-9	125*
32	COc1ccc(Cl)cc1NC(=O)CN1C(=O)CCS(=O)(=O)c2ccccc21	x	-1	-5	-7	2
33	COC(=O)c1ccccc1S(=O)(=O)N1CCC(C(=O)Nc2ccc(N3CCOCC3)cc2)CC1	4	-1	3	4	7
34	C[C@H]1CN([C@@H](C)CO)S(=O)(=O)c2ccc(-c3ccncc3)cc2O[C@@H]1CN(C)C	1[16.7 µM]	0	x	-12	8
35	CCN(CC)CCNc1ccc(CO)c2oc3cc(Cl)ccc3c(=O)c12	0	1	35*	-7	-2
36	CCC(C)CCN1C(N(C)C)=NC[C@@H]1C (stereo partly drawn)	-1	0	0	-10	149*
37	C/C(=N\NS(=O)(=O)c1ccc(C)cc1)c1ccc(C)o1	9	0	0	-12	0
38	C/C(=N/NS(=O)(=O)c1ccc(F)cc1)c1ccc(NC(=O)c2ccc(C)o2)cc1	132*	0	2	8	-7
39	C[C@@H]1CN([C@H](C)CO)C(=O)c2cc(NS(=O)(=O)c3cn(C)cn3)ccc2O[C@H]1CN(C)C(=O)Nc1cccc2ccccc12	1[16.7 µM]	100*	x	2	7
40	C[C@@H]1CN([C@@H](C)CO)C(=O)c2cc(NS(=O)(=O)c3cn(C)cn3)ccc2O[C@@H]1CN(C)C(=O)Nc1cccc2ccccc12	12[16.7 µM]	90*	x	9	27

The last two records of the section before lead into the next.
nr	SMILES	miR-122 sensor	Cneo AK release	Glyco luc inh	UUG fidelity	Statin myotox sup
39	C[C@@H]1CN([C@H](C)CO)C(=O)c2cc(NS(=O)(=O)c3cn(C)cn3)ccc2O[C@H]1CN(C)C(=O)Nc1cccc2ccccc12	1[16.7 µM]	100*	x	2	7
40	C[C@@H]1CN([C@@H](C)CO)C(=O)c2cc(NS(=O)(=O)c3cn(C)cn3)ccc2O[C@@H]1CN(C)C(=O)Nc1cccc2ccccc12	12[16.7 µM]	90*	x	9	27
41	CN(C)CC#Cc1ccc([C@H]2[C@H](CO)N3CCCCN(S(=O)(=O)c4ccccc4)C[C@@H]23)cc1	7[16.7 µM]	1	x	25	9
42	O=C(CCNS(=O)(=O)c1ccc(Br)cc1)NCCCSc1ccccc1	5	0	-2	-17	3
43	Cc1noc(C)c1NC(=O)Nc1ccc2c(c1)CC(=O)N([C@H](C)CO)C[C@H](C)[C@H](CN(C)Cc1ccc(Oc3ccccc3)cc1)O2	-3[16.7 µM]	9	x	9	58
44	COCC(=O)Nc1ccc2c(c1)[C@@H]1C[C@H](CC(=O)NCc3ccccn3)O[C@@H](CO)[C@@H]1O2	-2[16.7 µM]	2	x	-22	-4
45	O=C(Nc1ccccc1C(=O)NC(Cc1ccccc1)C(=O)NC1CCCCCC1)c1ccccc1 (stereo not drawn)	2	0	-1	-14	119*
46	O=C(Nc1ccccc1C(=O)NC1CCCCC1)c1ccccc1	x	-4	-5	-13	-20
47	CCC(=O)Nc1ccc2c(c1)C(=O)N(C)C[C@H](OC)[C@H](C)CN(C(=O)Cc1ccccn1)[C@@H](C)CO2	x	-6	x	-5	-20
48	Cn1nccc1C(=O)Nn1cnnc1	-11	-1	0	-5	118*

Record cards (already shown).
`Cc1noc(C)c1NC(=O)Nc1ccc2c(c1)CC(=O)N([C@H](C)CO)C[C@H](C)[C@H](CN(C)Cc1ccc(Oc3ccccc3)cc1)O2` as listed: miR-122 sensor: -3[16.7 µM]; Cneo AK release: 9; Glyco luc inh: x; UUG fidelity: 9; Statin myotox sup: 58
`Cn1nccc1C(=O)Nn1cnnc1` as listed: miR-122 sensor: -11; Cneo AK release: -1; Glyco luc inh: 0; UUG fidelity: -5; Statin myotox sup: 118*

Source: PubChem BioAssay (Broad Institute)
